Source: patent EP4847510A1, “TETRACYCLIC COMPOUND, AND PREPARATION METHOD, PHARMACEUTICAL COMPOSITION, AND USE THEREOF” (dated 2026)

The chains behind the UniProt entries cited, without tags or fusion partners.
UniProt P28223, whole entry: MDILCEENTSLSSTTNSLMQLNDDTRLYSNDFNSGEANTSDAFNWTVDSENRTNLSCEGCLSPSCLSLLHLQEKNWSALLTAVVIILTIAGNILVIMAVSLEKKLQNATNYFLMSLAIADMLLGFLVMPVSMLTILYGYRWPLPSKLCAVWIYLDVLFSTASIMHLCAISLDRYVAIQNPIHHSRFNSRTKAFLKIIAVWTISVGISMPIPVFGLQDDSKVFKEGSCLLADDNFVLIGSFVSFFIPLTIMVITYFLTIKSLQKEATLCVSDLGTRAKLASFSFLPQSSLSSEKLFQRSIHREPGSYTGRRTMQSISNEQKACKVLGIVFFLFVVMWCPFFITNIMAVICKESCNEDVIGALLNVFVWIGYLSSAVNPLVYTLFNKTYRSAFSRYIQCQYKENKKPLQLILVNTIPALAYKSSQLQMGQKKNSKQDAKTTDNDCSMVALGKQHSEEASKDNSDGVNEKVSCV

Columns and labels:
[1] = target: T1, 5HT2A receptor (Homo sapiens, UniProt P28223); assay: Downstream calcium flux functional activity assay, method 2 (HEK293 cells transiently transfected); details: for Ca^2+ flux Assay Emax%: method 2, highest concentration of 5-HT = 100%; for pEC50: read-out: Ca^2+ flux Assay EC50, method 2, transiently transfected HEK293 cells
[2] = target: T1, 5HT2A receptor; assay: Downstream beta-arrestin functional activity assay, method 2 (NanoBret); details: for β-arrestin Emax%: method 2, highest concentration of 5-HT = 100%; for pEC50: read-out: β-arrestin EC50, method 2, HEK293 cells
[3] = target: T1, 5HT2A receptor; assay: Downstream calcium flux functional activity assay, method 1 (HEK293 cells stably expressing the receptor)

Compound	Ca^2+ flux Assay Emax% [1] [%]	pEC50 [1]	β-arrestin Emax% [2] [%]	pEC50 [2]	Ca^2+ flux Assay Emax% ([3]; method 1, highest concentration of 5-HT = 100%) [%]	pEC50 ([3]; read-out: Ca^2+ flux Assay EC50, method 1, HEK293-5HT2AR cells)
COc1cc2c3c(c1)N(C)CCN3C1CCN(CCCc3cccc4c3OCC4)CC21 (centres unmarked)	5.425	< 4.00	–	–	–	–
CN1C(=O)CN2c3c(cccc31)[C@@H]1CN(CCC(O)c3cccc4c3OCC4)CC[C@@H]12 (some centres unmarked)	17.38	6.37	–	–	–	–
CN1CCN2c3c(cccc31)[C@@H]1CN(CCc3cccc4ccoc34)CC[C@@H]12	12.74	6.81	50.4	7.17	–	–
COc1cccnc1CCCN1CC[C@H]2[C@@H](C1)c1cccc3c1N2CC(=O)N3C	–	–	54.3	6.12	–	–
O=C1CN2c3c(cccc3[C@H]3CN(CCCc4cccc5c4OCC5)CC[C@H]32)N1	–	–	41.87	7.22	–	–
CN1C(=O)CN2c3c(cccc31)[C@@H]1CN(CCCc3nccc4c3OCC4)CC[C@@H]12	18.46	6.38	178.3	6.72	–	–
CC1(C)C(=O)Nc2cccc3c2N1[C@H]1CCN(CCCc2cccc4c2OCC4)C[C@@H]31	–	–	45.4	6.23	–	–
CN1C(=O)CN2c3c(cccc31)[C@@H]1CN(CCOc3cccc4c3OCC4)CC[C@@H]12	14.8	6.00	12.8	7.48	–	–
CC1C(=O)Nc2cccc3c2N1[C@H]1CCN(CCCc2cccc4c2OCC4)C[C@@H]31 (some centres unmarked)	9.139	< 4.00	46.5	6.43	–	–
CC(=O)N1CCN2c3c(cccc31)[C@@H]1CN(CCCc3cccc4c3OCC4)CC[C@@H]12	10.22	4.33	–	–	–	–
O=C1Nc2cccc3c2N(C1O)[C@H]1CCN(CCCc2cccc4c2OCC4)C[C@@H]31 (some centres unmarked)	–	–	28.2	6.34	–	–
O=C1CN2c3c(cccc3[C@@H]3CN(CCCc4c(Cl)ccc5c4OCC5)CC[C@@H]32)N1	46.83	< 4.00	34.4	7.02	–	–
O=C1CN2c3c(cccc3[C@@H]3CN(CCOc4cccc5c4OCC5)CC[C@@H]32)N1	12.89	6.18	–	–	–	–
O=C1CN2c3c(cccc3[C@@H]3CN(CCNc4cccc5c4OCC5)CC[C@@H]32)N1	–	–	100.2	6.04	–	–
O=C1CN2c3c(cccc3[C@@H]3CN(CCc4cccc5c4OCC5)CC[C@@H]32)N1	–	–	11.8	6.11	–	–
O=c1[nH]c2cccc3c2n1[C@H]1CCN(CCCc2cccc4c2OCC4)C[C@@H]31	0	< 4.00	27.5	7.46	–	–
O=C1CN2c3c(cccc3[C@@H]3CN(CCCCc4cccc5c4OCC5)CC[C@@H]32)N1	–	–	61.8	5.47	–	–
CN1C(=O)CN2c3c(cccc31)[C@@H]1CN(CCCc3c(F)ccc4c3OCC4)CC[C@@H]12	34.79	5.93	83.6	7.24	–	–
CN1CCN2c3c(cccc31)[C@@H]1CN(Cc3cccc4c3OCC4)CC[C@@H]12	–	–	130.4	5.71	–	–
O=C1CN2c3c(cccc3[C@@H]3CN(CCCc4cncc5c4OCC5)CC[C@@H]32)N1	–	–	84.9	5.62	–	–
CC(=O)N1CCN2c3c(cccc31)[C@@H]1CN(CC(O)Cc3cccc4c3OCC4)CC[C@@H]12 (some centres unmarked)	1.638	< 4.00	–	–	–	–
CCN1CCN2c3c(cccc31)[C@H]1CN(CCCc3cccc4c3OCC4)CC[C@H]12	–	–	44.3	8.80	–	–

Compound	Ca^2+ flux Assay Emax% [1] [%]	pEC50 [1]	β-arrestin Emax% [2] [%]	pEC50 [2]	Ca^2+ flux Assay Emax% ([3]; method 1, highest concentration of 5-HT = 100%) [%]	pEC50 ([3]; read-out: Ca^2+ flux Assay EC50, method 1, HEK293-5HT2AR cells)
CN1CCN2c3c(cccc31)[C@@H]1CN(CCCc3ccccc3Oc3ccncc3)CC[C@@H]12	–	–	–	–	1.35	< 4.00
[2H]C([2H])([2H])N1C(=O)CN2c3c(cccc31)[C@@H]1CN(CCCc3nccc4c3OCC4)CC[C@@H]12	–	–	81.2	6.18	–	–
O=C1CN2c3c(cccc3[C@@H]3CN(CCCc4cc(F)cc5c4OCC5)CC[C@@H]32)N1	–	–	77.9	6.18	–	–
O=C1CN2c3c(cc(F)cc3C3CN(CCCc4cccc5c4OCC5)CCC32)N1 (centres unmarked)	18.00	6.12	–	–	–	–
O=S1(=O)CCN2c3c(cccc31)C1CN(CCCc3cccc4c3OCC4)CCC12 (centres unmarked)	8.883	< 4.00	–	–	–	–
CC(=O)N1CCN2c3c(cccc31)[C@@H]1CN(CC3CC3c3cccc4c3OCC4)CC[C@@H]12 (some centres unmarked)	3.884	< 4.00	–	–	–	–
O=C1CN2c3c(cccc3[C@@H]3CN(CCCc4ccc(F)c5c4OCC5)CC[C@@H]32)N1	2.23	< 4.00	59.1	6.28	–	–
O=C1CN2c3c(cccc3[C@@H]3CN(CCCc4ccc(O)c5c4OCC5)CC[C@@H]32)N1	38.55	7.65	44.9	6.48	–	–
[2H]C1([2H])C(=O)Nc2cccc3c2N1[C@H]1CCN(CCCc2cccc4c2OCC4)C[C@@H]31	3.316	< 4.00	–	–	–	–
O=C1CN2c3c(cccc3[C@@H]3CN(CCCc4cccc5c4OCC5)CC[C@H]32)N1 (relative stereo)	27.36	4.44	32.67	6.81	–	–
O=c1[nH]c2cccc3c2n(c1=O)[C@H]1CCN(CCCc2cccc4c2OCC4O)C[C@@H]31 (some centres unmarked)	–	–	31.8	5.99	–	–
O=C1CCN2c3c(cccc3[C@@H]3CN(CCCc4cccc5c4OCC5)CC[C@@H]32)N1	3.69	< 4.00	55.7	6.77	–	–
CN1C(=O)CN2c3c(cccc31)[C@@H]1CN(CCCc3ncccc3Cl)CC[C@@H]12	–	–	80.4	5.99	–	–
CN1C(=O)CN2c3c(cccc31)[C@@H]1CN(CCCc3scc4c3OCC4)CC[C@@H]12	34.01	7.21	68.1	7.34	–	–
CN1C(=O)CCN2c3c(cccc31)[C@@H]1CN(CCCc3cccc4c3OCC4)CC[C@@H]12	–	–	36.7	6.19	–	–
CN1CCN2c3c(cc(C#N)cc31)[C@@H]1CN(CCCc3cccc4c3OCC4)CC[C@@H]12	9.991	< 4.00	–	–	–	–
O=C1CN2c3c(cccc3[C@@H]3CN(CCc4cccc5ccoc45)CC[C@@H]32)N1	–	–	51.7	5.40	–	–
O=C1CN2c3c(cccc3[C@@H]3CN(CCCc4cc(O)cc5c4OCC5)CC[C@@H]32)N1	5.83	< 4.00	37.9	6.47	–	–
O=C1CN2c3c(cccc3[C@@H]3CN(Cc4cccc5c4OCC5)CC[C@@H]32)N1	–	–	79.7	5.50	–	–
CC1(C)Cc2cccc(CCCN3CC[C@H]4[C@@H](C3)c3cccc5c3N4CC(=O)N5)c2O1	26.72	5.95	43.44	6.77	–	–
c1cc(CCCN2CC[C@H]3[C@@H](C2)c2cccc4c2N3CCN4)c2c(c1)CCO2	1.35	< 4.00	18.5	7.53	–	–

pEC50: −log10 of the molar value.
